Assay [1] has as its target receptors in cardiomyocytes. Description: ELISA; titration ELISA of rStc1 with cardiomyocytes and with neutrophils; methods in the Supporting Information. Background: ELISA stands for enzyme-linked immunosorbent assay.
The target of assay [2] is receptors in neutrophils. The description is as above.

For the substance “recombinant Stc1 protein (rStc1) (from UniProt O55183 34-247) (ligand)”, the Kd (as a rule, the constant that tells how readily two partners part at equilibrium) in assay [1] amounted to 2.19 nM; in assay [2], 1.25 nM.

Source of the values: article PMC11809403.
